In ChEMBL document CHEMBL1145163, “Structure-based design, synthesis, and memapsin 2 (BACE) inhibitory activity of carbocyclic and heterocyclic peptidomimetics” (J Med Chem, 2005) one finds IC50 data, which are given here for one molecule.

By UniProt entry, the sequences of proteins in these tests, tags left out. Where a name states a change or a piece, a line headed by the entry shows the natural chain unless it says otherwise.
UniProt P56817: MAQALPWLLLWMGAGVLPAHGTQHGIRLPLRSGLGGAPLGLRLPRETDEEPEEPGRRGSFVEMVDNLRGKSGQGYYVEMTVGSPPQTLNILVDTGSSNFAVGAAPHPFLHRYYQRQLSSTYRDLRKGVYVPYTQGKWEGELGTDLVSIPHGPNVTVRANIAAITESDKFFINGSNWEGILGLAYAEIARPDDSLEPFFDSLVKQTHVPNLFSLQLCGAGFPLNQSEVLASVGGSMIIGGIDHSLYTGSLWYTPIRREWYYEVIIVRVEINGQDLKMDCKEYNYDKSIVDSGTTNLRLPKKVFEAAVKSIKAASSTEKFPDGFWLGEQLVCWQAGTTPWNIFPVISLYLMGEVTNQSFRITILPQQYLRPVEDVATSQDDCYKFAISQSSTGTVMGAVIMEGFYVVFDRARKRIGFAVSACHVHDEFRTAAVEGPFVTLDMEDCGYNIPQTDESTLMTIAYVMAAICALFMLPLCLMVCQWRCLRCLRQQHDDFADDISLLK

The target of this assay is Beta-secretase 1 (Homo sapiens, UniProt P56817). Briefly: Inhibitory concentration against human Membrane-associated aspartic protease 2.

In general, IC50 refers to the concentration needed to halve the response being measured. Low values mean higher potency, high ones lower potency.

As to `CCCCNC(=O)[C@@H](NC(=O)[C@@H]1CC(=O)C[C@H]1[C@H](O)[C@H](CC(C)C)NC(=O)[C@H](CCSC)NC(=O)[C@H](CC(C)C)NC(C)=O)C(C)C`, half-maximal inhibition (IC50) was put at 10 nM.
